Compound activity as filed in PubChem BioAssay.
Most compounds without a hit are left out; they make up all but 1.2% or so of the library.
Yeast UUG start = alters start codon recognition fidelity in yeast. S. cerevisiae UUG-firefly luciferase reporter, luminescence/redox ratio. activity score, % at 18.7 µM. 0.13% of 350,000 active. AID 602363;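 active = replicate mean at a twofold rise or more, about +100% in these data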;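 also: firefly luciferase made from a UUG start codon reports start codon fidelity; reporter light over untreated wells divided by growth signal over untreated wells; some hits fall short of that in this replicate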
miR122 inh = miR-122 inhibition in Huh7 cells; Huh7 miR-122 Renilla luciferase sensor, 48 h; neutral wells = 0, positive control = 100; activation (reporter increase), % at 12.5 µM; 340,000 tested, 0.3% active; AID 602342;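 active = mean replicate activation score at least 90 and every replicate individually at or above 90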;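 note: higher luciferase means less miR-122 activity so hits act as miR-122 inhibitors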
Statin myotox sup = suppression of simvastatin myotoxicity; rescue of ATP level, % at 7.49 µM; 330,000 tested, 0.78% active; C2C12 myotubes + simvastatin, ATP luminescence, 48 h; scaled: DMSO 0, geranylgeraniol control 100;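 active = mean ATP rescue above about 67%, or every replicate alone reaching that limit, limit read from the data, passing the limit was not always enough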;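 note: myotubes were challenged with 10 µM simvastatin during compound exposure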
Cneo AK release = Cryptococcus neoformans lysis via adenylate kinase release. C. neoformans lysis, adenylate kinase release luminescence, 4 h; normalised: neutral wells 0, clomiphene wells 100. lysis activity, % at 15 µM. 360,000 tested, 0.2% active;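 active = mean lysis activity across replicates of at least 80%, whatever share of replicates individually reach that level; inactive = mean lysis activity below 80%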
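Assay system: C. neoformans cells. Amount: yeast cell density of 5 × 10^6 cells/mL. Technique: AK luminescence. Buffer or medium: YPD. Times: static 4 h at 37 °C with compound, 1 h detection. Dosing: single-point compound dose. Read-out: lysis from increased AK signal.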
N-glyco inh = blocks N-linked glycosylation in D54 reporter cells. reporter increase, % at 12.5 µM. 360,000 tested, 0.23% active. D54 ERlucT glycosylation luciferase reporter, 24 h; percent of 100 nM tunicamycin response;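 active = mean luciferase reporter signal, scaled so untreated is 0 and the glycosylation-blocking control 100, at or above a set limit in every replicate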;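 note: luciferase carries N-glycosylation sites so blocking glycosylation raises the light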
Of the large screens only hits and unclear results are named; the others gave an inactive call.

COc1ccc(S(=O)(=O)Nc2ccc3c(c2)C(=O)N([C@H](C)CO)C[C@H](C)[C@H](CN(C)C(=O)NC2CCCCC2)O3)cc1	none (no result: N-glyco inh)
C[C@H](NC(=O)N(C)C[C@@H]1OCc2ccccc2-c2c(n(C)c3ccccc23)C(=O)N([C@@H](C)CO)C[C@H]1C)c1ccccc1	none (no result: Yeast UUG start, miR122 inh, Statin myotox sup, N-glyco inh)
CCC(=O)N1[C@H](CO)[C@H](c2ccccc2)[C@@H]1CN(CC)C(=O)c1ccccc1	none (no result: N-glyco inh)
CC(=O)N1[C@H](CO)[C@@H](c2ccc(-c3ccccc3)cc2)[C@@H]1CNC(=O)C1CC1	none (no result: N-glyco inh)
CCCN1CCN(C(=O)c2ccc(Sc3ccc(C)cc3)c(NC(C)=O)c2)CC1	Statin myotox sup 80 (no result: Yeast UUG start, Cneo AK release)
CCCNC(=O)C(=O)c1cccn1-c1ccsc1C(=O)OC	Statin myotox sup 119
CNC(=O)c1cccn1-c1ccsc1C(=O)OC	none
C[C@@H]1CCCCO[C@@H](CN(C)C(=O)Nc2ccc(F)cc2)[C@@H](C)CN([C@H](C)CO)C(=O)c2cc(NC(=O)Nc3cccc4ccccc34)ccc2O1	none (no result: N-glyco inh)
C=C[C@@H](COC(=O)c1ccc([N+](=O)[O-])cc1)N(Cc1ccc(OC)cc1)S(=O)(=O)c1ccc(Br)cc1	none (no result: miR122 inh, Statin myotox sup, N-glyco inh)
Cc1cc(=O)oc2c(CN3CCCCC3)c(O)c(Cl)cc12	Statin myotox sup 97
O=C([C@H]1[C@H](CO)[C@H]2Cn3c(cccc3=O)[C@H]2N1CCC(F)(F)F)N1CCCCC1	Cneo AK release 93 (no result: Yeast UUG start, miR122 inh, N-glyco inh)
CCN(c1ccccc1)S(=O)(=O)c1cnc[nH]1	Statin myotox sup 88
O=C(CC12CC3CC(CC(C3)C1)C2)NC1CC1	none (no result: Yeast UUG start, miR122 inh, Statin myotox sup, Cneo AK release)
COc1ccc(C(=O)NC(C(=O)NCc2ccccn2)C(C)C)cc1 (stereo not drawn)	Statin myotox sup 136 (no result: Yeast UUG start)
CN=c1sc(C(=O)Nc2cccc(Cl)c2)cc(=O)n1C	N-glyco inh 31
Cc1ccc(/C(O)=C2\C(=O)C(=O)N(CC(C)O)C2c2ccc(N(C)C)cc2)cc1 (stereo not drawn)	none
C[C@@H]1CCCCO[C@H](CN(C)S(=O)(=O)c2cccs2)[C@@H](C)CN([C@@H](C)CO)C(=O)c2cc(NC(=O)c3ccccc3)ccc2O1	none (no result: Statin myotox sup, N-glyco inh)
CC(=O)C[C@H]1c2cc(C(F)(F)F)ccc2S(=O)(=O)N1C1CCCCC1	miR122 inh 118
COC(=O)C[C@H]1c2cc(C(F)(F)F)ccc2S(=O)(=O)N1C1CCCCC1	none (no result: Statin myotox sup)
Cc1[nH]n(-c2ccccc2)c(=O)c1C(C[N+](=O)[O-])c1ccccc1Cl (stereo not drawn)	Statin myotox sup 118
C[C@H](CO)N1C[C@H](C)[C@@H](CN(C)C(=O)C2CCCCC2)OCCCC[C@H](C)Oc2ccc(NC(=O)CCCN(C)C)cc2C1=O	none (no result: N-glyco inh)
CCN(CC)S(=O)(=O)N1CCC(C(=O)NCCN2CCOCC2)CC1	Statin myotox sup 107
CCCCN(CC)S(=O)(=O)N1CCC(C(=O)NCCCN2CCOCC2)CC1	none (no result: Yeast UUG start, miR122 inh, Statin myotox sup, Cneo AK release)
C=CCN=C1SC(C)C(=O)N1S(=O)(=O)c1ccccc1 (stereo not drawn)	Statin myotox sup 109
CCn1c(CSc2nc3ccccc3[nH]2)n[nH]c1=S	Statin myotox sup 101
O=C1NC(c2ccccc2Cl)Nc2ccccc21 (stereo not drawn)	none
O=C1NC(c2cccc3ccccc23)Nc2ccccc21 (stereo not drawn)	miR122 inh 150 (no result: Yeast UUG start, Statin myotox sup, Cneo AK release)
CC(C)NC(=O)Nc1ccc2c(c1)C(=O)N([C@@H](C)CO)C[C@@H](C)[C@@H](CN(C)C(=O)NC(C)C)OCCCC[C@@H](C)O2	Cneo AK release 113 (no result: Yeast UUG start, Statin myotox sup, N-glyco inh)
CCCN(C)C[C@@H]1OCCCC[C@@H](C)Oc2ccc(NC(=O)Nc3ccccc3)cc2C(=O)N([C@H](C)CO)C[C@@H]1C	none (no result: N-glyco inh)
C[C@@H]1CCCCO[C@H](CN(C)C(=O)CCCN(C)C)[C@@H](C)CN([C@@H](C)CO)C(=O)c2cc(NC(=O)Nc3ccc(C(F)(F)F)cc3)ccc2O1	none (no result: N-glyco inh)
CC(C)NC(=O)Nc1ccc2c(c1)C(=O)N([C@H](C)CO)C[C@@H](C)[C@H](CN(C)C(=O)Nc1ccccc1)OCCCC[C@@H](C)O2	Cneo AK release 118 (no result: Yeast UUG start, Statin myotox sup, N-glyco inh)
C[C@H](CO)N1C[C@H](C)[C@@H](CN(C)C(=O)CCCN(C)C)OCCCC[C@H](C)Oc2ccc(NC(=O)Nc3ccc(C(F)(F)F)cc3)cc2C1=O	Statin myotox sup 90 (no result: N-glyco inh)
CCCN(C)C[C@H]1OCCCC[C@@H](C)Oc2ccc(NC(=O)NC(C)C)cc2C(=O)N([C@@H](C)CO)C[C@H]1C	Cneo AK release 92 (no result: Yeast UUG start, Statin myotox sup, N-glyco inh)
O=C(C[C@@H]1CC[C@@H]2[C@H](COC[C@@H](O)CN2S(=O)(=O)c2ccccc2)O1)NCCN1CCCCC1	none (no result: N-glyco inh)
C=CCOc1ccc(CNn2nnnc2N)cc1	none (no result: Statin myotox sup)
Nc1nnnn1NCc1cccc(OCc2ccccc2)c1	Statin myotox sup 104
C[C@@H]1CN([C@@H](C)CO)S(=O)(=O)c2ccc(C#CC3(O)CCCC3)cc2O[C@H]1CN(C)C(=O)Cc1cccnc1	none (no result: N-glyco inh)
S=C(NN=C(C1CC1)C1CC1)Nc1ccccc1	Statin myotox sup 142
Clc1ccc(-c2nnc(C3CCCCC3)o2)cc1	Statin myotox sup 123
Cc1c(C)n(Cc2ccc(F)cc2)c2ccc(C(=O)NCCN3CCOCC3)cc12	none
CC(C)(C)OC(=O)N1CCC(C(=O)Nc2ccc(C(=O)N3CCCCC3)cc2)CC1	none
Cc1ccc(C(=O)Nc2ccc3ncccc3c2)cc1	Cneo AK release 129 (no result: miR122 inh)
COc1ccc(OC)c(CNC(=O)C2CCC(=O)N2C(C)C)c1 (stereo not drawn)	none
O=C(Cn1nnc(-c2ccncc2)n1)N(C1CCCCC1)C1CCCCC1	Statin myotox sup 124
NC(=O)c1ccc(-c2nnn(CC(=O)N(C3CCCC3)C3CCS(=O)(=O)C3)n2)cc1 (stereo not drawn)	none
CC(=O)Nc1ccc(CNc2ncnc3ccc(-c4c(C)noc4C)cc23)cc1	N-glyco inh 50
C/C=C/c1cnc2c(c1)C(=O)N([C@H](C)CO)C[C@@H](C)[C@@H](CN(C)S(=O)(=O)c1ccccc1)O2	none (no result: N-glyco inh)
Cc1ccc(N(CN2CCCC2=O)C(=O)c2ccc(C)c(C)c2)cc1	Statin myotox sup 113
Cc1ccc(S(=O)(=O)N(C)C[C@H]2Oc3ccc(NC(=O)CCN4CCOCC4)cc3CC(=O)N([C@@H](C)CO)C[C@H]2C)cc1	none (no result: N-glyco inh)
CC(=O)c1ccc(-n2c(-c3cc(-c4ccco4)[nH]n3)n[nH]c2=S)cc1	Statin myotox sup 84
O=C(O)c1ccc(-n2c(-c3cc(-c4ccco4)[nH]n3)n[nH]c2=S)cc1	none
CN1CCN(CC(=O)n2c3c(c4ccccc42)CCCC3)CC1	none (no result: Yeast UUG start, Cneo AK release)
CCN(CC)CC(=O)n1c2c(c3ccccc31)CCCC2	Statin myotox sup 124
Cc1ccc2ccccc2c1C(O)c1ncc(-c2ccccc2F)[nH]1 (stereo not drawn)	miR122 inh 175
Cc1cccc(C(O)c2ncc(-c3ccccc3F)[nH]2)c1C (stereo not drawn)	miR122 inh 96
